Earlier results, collected in PMC3554599, “Hydrophobic analogues of rhodamine B and rhodamine 101: potent fluorescent probes of mitochondria in living C. elegans” (Beilstein Journal of Organic Chemistry, 2012).

System: C. elegans
Settings: stated for comparison, no reference given; cited from earlier work

For sodium azide, the “concentration that rapidly causes paralysis and eventually death” value is given as 25 to 50 mM.
